Screening results from PubChem BioAssay.
Sampled rows, rich in hits. Any-hit rate of the full collection: about 13%.
ALDH1A1 inh: ALDH1A1 (human) enzyme inhibition. actives 7.3% (n = 220,000). Potency, µM (doses to about 75.3 µM), without a hit: at the highest dose activity, negative = inhibition, most hits filed as inhibitors. P00352. AID 1030. Purified ALDH1A1, NADH fluorescence, propionaldehyde substrate; active = well fitted inhibition curve with a large enough effect, not every such curve was filed as active; inconclusive = small, poorly fitted or top-dose-only effect, or another doubt; inactive = no such curve, though single readings can be large or run the other way;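 also: potency is read from the fitted curve at half-maximal effect; plate controls were no enzyme wells and a reference inhibitor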
KDM4E inh: JMJD2E (human) inhibition; AID 2147; JMJD2E catalytic domain, FDH-coupled NADH fluorescence (FDH is formaldehyde dehydrogenase); Potency, µM (doses to about 57.1 µM), for the others: top-dose activity change, negative = inhibition, most hits filed as inhibitors; actives 1.6% (n = 230,000); B2RXH2; active = well fitted inhibition curve with a large enough effect, not every such curve was filed as active; inconclusive = small, poorly fitted or top-dose-only effect, or another doubt; inactive = no such curve, though single readings can be large or run the other way;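 also: potency is read from the fitted curve at half-maximal effect; 0% = wells with enzyme and -100% = buffer wells without enzyme; nearly all actives have a fitted effect of over 50% in size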
Sfp inh: qHTS Assay for Inhibitors of Bacillus subtilis Sfp phosphopantetheinyl transferase (PPTase); 4'-phosphopantetheinyl transferase ffp (Bacillus subtilis), Q9F4F7; Biochemical Sfp PPTase activity, qHTS; Potency, µM, inactives show max response, negative = inhibition, hits mostly inhibitors; 310,000 compounds, 3.5% hits; AID 1490, 2009; active means well fitted inhibition curve with a large enough effect; inconclusive means small, poorly fitted or top-dose-only effect, or another doubt; inactive means no such curve, though single readings can be large or run the other way;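 further: the enzyme is Sfp with the accession as filed and its product quenches rhodamine fluorescence; potency means the concentration at half of the fitted maximal effect; 0% = enzyme reaction without inhibitor and -100% = no enzyme wells; top concentration of the series not given in the record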
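Step 1, compound plus 15 nM Sfp-PPTase, 15 min, room temperature. Step 2, add rhodamine-CoA (5 uM) and BHQ-2-YbbR (12.5 uM). Step 3, read 525/598 nm fluorescence at 0 and 30 min.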
miR-21 reporter: miR-21 reporter, rising signal; Potency, µM (titrated, usually from 38.3 µM), without a hit: at the highest dose reporter change, positive = more light; AID 2288; 340,000 tested, under 10 active; HeLa miR-21 FLuc reporter, luciferase, 48 h; active = well fitted rising curve with a large enough effect; inconclusive = small, poorly fitted or top-dose-only effect; inactive = no such curve, though single readings can be large or run the other way;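 note: % of control where 0% means no effect; miR-21 action dims this reporter so a rising signal means less miR-21 action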
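Luminescence from a firefly luciferase reporter carrying a miR-21 binding site downstream, stably expressed under a CMV promoter in HeLa cells that make miR-21 endogenously, reports miRNA modulation after 48 h compound exposure up to approximately 40uM final.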
Lamin A splicing: changes lamin A minigene splicing in HeLa cells; HeLa LMNA splicing GFP/RFP minigene ratio, 48 h; Potency, µM (doses to about 46.1 µM), for the others: top-dose ratio change, negative = inhibition, usual class: inhibitors; actives 0.01% (n = 200,000); AID 1487; active = well fitted inhibition curve with a large enough effect in the signal ratio, with a control signal flat, not every such curve was filed as active; inconclusive = small, poorly fitted or top-dose-only effect, or effect the other way, or a change in a side signal; the % refers to the signal ratio; also: potency is read from the fitted curve at half-maximal effect; % is scaled to controls: 0 for no effect and ±100 for the full control effect
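S3 HeLa stable clones carrying a lamin A-EGFP splicing minigene plus DsRed2 were seeded at 600 cells/well in Opti-MEM with 2% FBS, pin-dosed and incubated 48 h at 37°C. Acumen cytometry (488 nm) gave the GFP/RFP total-intensity ratio.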
G9a inh: inhibitors of human histone lysine methyltransferase G9a. Potency, µM (doses to about 102 µM), for the others: top-dose activity, negative = inhibition, usual class: inhibitors. Q96KQ7. AID 504332. G9a H3K9 monomethylation, AlphaScreen, 2 h. actives 8.8% (n = 350,000); also: potency is read from the fitted curve at half-maximal effect; % is scaled to controls: 0 for no effect and ±100 for the full control effect; nearly all actives have a fitted effect of over 75% in size
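AlphaScreen read-out: biotin-H3K9 peptide (500 nM) methylation by 20 nM enzyme with 20 uM SAM, 2 h at room temperature after 15 min compound preincubation; anti-monomethyl H3K9 antibody plus donor/acceptor beads, 10 min dark.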
* = called active by the depositor; ! = repeats disagree; [ ] = another dose, or the depositor's remark. Unless noted, calls follow the shape of the dose curve; as a rule, active = well fitted curve in the direction sought with a large enough effect; inconclusive = small, poorly fitted or top-dose-only effect, or another doubt; inactive = no such curve, though single readings can be large; an effect the other way counts as inactive or inconclusive.

CCCOc1ccccc1C1C(C(=O)Nc2ccccc2)=C(C)Nc2nnnn21 (stereo not drawn) was read as miR-21 reporter 7% and G9a inh -8%[59 µM].
For COC(=O)C1=C(C)Nc2nnnn2C1c1cccs1 (stereo not drawn) the results were ALDH1A1 inh 2.8µM*, KDM4E inh 3%, Sfp inh 13%, miR-21 reporter -6%, Lamin A splicing -1% and G9a inh 9%[59 µM].
N#CCCn1c(=O)c(-c2ccc(Cl)cc2)nc2cnc(N3CCNCC3)nc21 was read as ALDH1A1 inh inconclusive, Sfp inh -19%, Lamin A splicing inconclusive and G9a inh 1%[0.501 µM].
Screening Cc1cnc(C(=O)OCC(=O)Nc2cc(-c3ccccc3)nn2-c2ccccc2)cn1 returned G9a inh -36%.
CC(C)OCCCNC(=O)c1cn(C)c2ccc(S(=O)(=O)N3CCCCCC3)cc2c1=O was read as miR-21 reporter -7% and G9a inh 37%[59 µM].
Screening N#Cc1nc(COc2ccccc2)oc1N1CCN(Cc2ccccc2)CC1 returned ALDH1A1 inh inconclusive, KDM4E inh -2%, Sfp inh 12%, miR-21 reporter -3%, Lamin A splicing -14% and G9a inh inconclusive.
Screening COc1ccccc1OCc1nc(C#N)c(N2CCCC2)o1 returned ALDH1A1 inh inconclusive, KDM4E inh 6%, Sfp inh 2%, miR-21 reporter -9% and G9a inh 5%.
Screening N#Cc1nc(COc2ccccc2)oc1N1CCC(Cc2ccccc2)CC1 returned ALDH1A1 inh -2%, KDM4E inh 4%, Sfp inh -25%, miR-21 reporter -6%, Lamin A splicing inconclusive and G9a inh 13µM*.
N#Cc1nc(COc2ccc(F)cc2)oc1N1CCCC1 was read as ALDH1A1 inh -3%, KDM4E inh 12%, Sfp inh -25%, miR-21 reporter -20%, Lamin A splicing 2% and G9a inh inconclusive.
`N#Cc1nc(COc2cccc(Cl)c2)oc1N1CCCC1` gave ALDH1A1 inh 2%, KDM4E inh 6%, Sfp inh -15%, miR-21 reporter -17%, Lamin A splicing 4% and G9a inh 45µM*.
Cc1ccccc1OCc1nc(C#N)c(N2CCCC2)o1 was read as ALDH1A1 inh inconclusive, KDM4E inh -2%, Sfp inh -17%, miR-21 reporter -19% and G9a inh 28µM*.
`O=C(COC(=O)COc1cccc(C(F)(F)F)c1)NC(=O)NC1CCCCC1` gave G9a inh -44%.
Cc1cccc(NC(=O)c2cc3c(=O)n(Cc4cccnc4)ccc3nc2C)c1 was read as miR-21 reporter -25%, Lamin A splicing -1%[46 µM] and G9a inh 4%[59 µM].
Screening CC(=O)c1c(C)n(-c2ccccc2)c2ccc(O)cc12 returned ALDH1A1 inh -3%, KDM4E inh 7%, Sfp inh 13%, miR-21 reporter 2%, Lamin A splicing inconclusive and G9a inh 1%[12.7 µM].
For CN(C)/C=C/c1c([N+](=O)[O-])c2ccc(O)cc2n1-c1ccccc1 the results were ALDH1A1 inh -15%, KDM4E inh inconclusive, Sfp inh 2.5µM* and miR-21 reporter 19%.
For CN1CCCC2(CCN(S(=O)(=O)c3ccccc3)CC2)C1 the results were ALDH1A1 inh 7%, Sfp inh 16% and G9a inh 2%[12.7 µM].
Screening c1ccc2c(c1)CC1(CCCCC1)n1nnnc1-2 returned ALDH1A1 inh 13µM*, KDM4E inh -1%, Sfp inh 9%, miR-21 reporter -3%, Lamin A splicing inconclusive and G9a inh -7%[59 µM].
For c1ccc2c(c1)Cn1nnnc1-2 the results were ALDH1A1 inh 7%, KDM4E inh 0%, Sfp inh -4%, miR-21 reporter 0%, Lamin A splicing 10% and G9a inh 2%.
[O-]/[N+](=C\c1ccc(OC(F)F)cc1)c1ccccc1 was read as ALDH1A1 inh 7.9µM*, KDM4E inh -5%, Sfp inh -27%, miR-21 reporter -11%, Lamin A splicing -4% and G9a inh 50µM*.
[O-]/[N+](=C\c1ccncc1)c1ccccc1 was read as ALDH1A1 inh 15µM*, KDM4E inh -3%, Sfp inh -28%, miR-21 reporter -5%, Lamin A splicing -10% and G9a inh inconclusive.

Next section, overlapping the part above by 2 compounds.
[O-]/[N+](=C\c1ccc(OC(F)F)cc1)c1ccccc1 was read as ALDH1A1 inh 7.9µM*, KDM4E inh -5%, Sfp inh -27%, miR-21 reporter -11%, Lamin A splicing -4% and G9a inh 50µM*.
[O-]/[N+](=C\c1ccncc1)c1ccccc1 was read as ALDH1A1 inh 15µM*, KDM4E inh -3%, Sfp inh -28%, miR-21 reporter -5%, Lamin A splicing -10% and G9a inh inconclusive.
CCN(CC)C(=O)c1c(NC(=O)c2ccccc2F)sc2c1CCC(C(C)(C)C)C2 (stereo not drawn) was read as miR-21 reporter 9% and G9a inh -39%[59 µM].
`COc1ccc(-c2ccc(SCC(=O)NC3CCCCC3)nn2)cc1OC` gave Sfp inh -3%, miR-21 reporter -27% and G9a inh -11%.
`CN(Cc1cnn(Cc2ccccc2)c1)C(=O)CN=C1NS(=O)(=O)c2ccccc21` gave G9a inh -6%[12.7 µM].
For CC1=C(C(=O)OCc2ccccc2)C(c2ccc([N+](=O)[O-])cc2)NC(=O)N1C (stereo not drawn) the results were Sfp inh -3%, miR-21 reporter 4% and G9a inh 1%.
`CC1=C(C(=O)OCc2ccccc2)C(c2ccc([N+](=O)[O-])cc2)NC(=O)N1CCCC(=O)O` (stereo not drawn) gave Sfp inh -13%, miR-21 reporter -1% and G9a inh 45µM*.
For CC1=C(C(=O)OCc2ccccc2)C(c2ccc([N+](=O)[O-])cc2)NC(=O)N1CCCCCC(=O)O (stereo not drawn) the results were ALDH1A1 inh -12%, KDM4E inh 3%, Sfp inh 45µM*!, miR-21 reporter -13%, Lamin A splicing 11% and G9a inh inconclusive.
`O=C(c1cc(Br)ccc1O)N1CCN(S(=O)(=O)Cc2ccccc2)CC1` gave G9a inh 1%[12.7 µM].
`CCc1nnc(NC(=O)c2nc(S(C)(=O)=O)ncc2Cl)s1` gave miR-21 reporter -3% and G9a inh 7.1µM*.
Screening Cc1cccc(CS(=O)(=O)c2ncc(Cl)c(C(=O)Nc3c(C)cccc3C)n2)c1 returned Sfp inh -24%, miR-21 reporter inconclusive and G9a inh 35µM*.
`Cc1ccccc1CS(=O)(=O)c1ncc(Cl)c(C(=O)Nc2ccc(F)cc2)n1` gave Sfp inh inconclusive, miR-21 reporter inconclusive and G9a inh 22µM*.
`COC(=O)c1ccccc1NC(=O)c1nc(S(=O)(=O)Cc2ccccc2F)ncc1Cl` gave miR-21 reporter 0% and G9a inh 9%[59 µM].

Copied from above for reference:
`Cc1ccccc1CS(=O)(=O)c1ncc(Cl)c(C(=O)Nc2ccc(F)cc2)n1` gave Sfp inh inconclusive, miR-21 reporter inconclusive and G9a inh 22µM*.
`COC(=O)c1ccccc1NC(=O)c1nc(S(=O)(=O)Cc2ccccc2F)ncc1Cl` gave miR-21 reporter 0% and G9a inh 9%[59 µM].
